Source: EP4088722A1, “PHARMACEUTICAL COMPOSITIONS, USES THEREOF AND METHODS FOR TREATMENT OF GENETIC DISEASES CAUSED BY INTRONIC SPLICE-ACCEPTOR SITE MUTATIONS” (priority 2021, dated 2022)

Tests used:
[1] = tested on: AGA minigene containing the splice variant (c.128-2A>G); experiment: AGA minigene luciferase splicing assay in AGA knockout HEK293T cells; details: 24 h
[2] = tested on: TPP1 minigene with the mutation c.509-1G>C; experiment: TPP1 minigene luciferase splicing assay in HEK293T cells; format: cell-based, human; details: for luciferase signal: 24 h; for splicing of the TPP1 minigene / variant (summary statement): overall statement in the description
From the text: Due to the encouraging data obtained with our AGU splice-site variant, we constructed a TPP1 luciferase minigene that contains exons 5, 6 and 7 together with the introns 5 and 6 (Figure 11a) and the firefly luciferase coding region. The splice-site variant -1G>C was introduced at the end of intron 5. Upon exclusion of exon 6, which is the most likely alteration, no luciferase activity is observed due to the frameshift and premature stop codon. Other altered splicing products are possible, but they would not result in a luciferase signal. If the splicing can be corrected, and exon 6 is included, luciferase activity can be measured (Figure 11a).

[3] = tested on: AGA minigene construct without luciferase (c.128-2A>G); format: cell-based, human; details: 25 µM luteolin or 50 µM kinetin, 24 h, qPCR-based minigene assay
Procedure: For qPCRs, total RNA was isolated with peqGOLD TriFast™ (VWR, Darmstadt, Germany) and included a DNAse step. Total RNA (1-3 µg) were reverse transcribed with 150 fmol oligo(dT) primers and M-MuLV reverse transcriptase (NEB, Frankfurt, Germany) in a total volume of 45 µL. Real-time quantitative PCRs were performed using the CFX Connect Real-Time PCR Detection System (Bio-Rad, Munich, Germany). Annealing temperature was 60°C for all primers. The reactions were done as duplicates with 0.8 µL cDNA in a total volume of 10 µL using iTaq-TMUniversal SYBR Green Supermix (Bio-Rad). PCR products were quantified with the ACt-method. For normalization, the mean of the reference genes B2M, Rpl13a, Ywhaz and TBP was used. Table 2. Sequences of primers used for the quantitative real-time PCR.
RNA was isolated from the cells, reverse transcribed to cDNA, and a qRT-PCR with a fwd primer residing in exon 2 and a reverse primer in the plasmid vector (3'-untranslated region of the resulting RNA) was performed. Thus, amplification of a PCR product of 271 bp is only observed when both exons 2 and 3 are present in the mRNA.

Compound | luciferase signal ([2]; 7.5 mM) | splicing of the TPP1 minigene / variant (summary statement) [2] | amount of AGA mRNA products containing exon 2 [3] | further results
Cn1c(=O)c2c(ncn2C)n(C)c1=O [caffeine, 1,3,7-trimethylxanthine] | Significant increase of luciferase signal | – | – | luciferase activity ([1]; four concentrations 1 mM - 7.5 mM, compared to untreated cells): dose dependent, significant (at 5 mM and 7.5 mM) increase in the luciferase activity
Cn1c(=O)c2c(ncn2CC2OCCO2)n(C)c1=O [doxofylline, 7-(1,3-dioxolan-2-ylmethyl)-1,3-dimethylpurine-2,6-dione] | – | consistently failed to exert any significant effects | – | –
c1coc(CNc2ncnc3[nH]cnc23)c1 [kinetin] | – | no systematic positive effect | increased the amount of AGA mRNA products containing exon 2 | luciferase activity ([1]; 100 µM kinetin): significant (about two-fold) increase in luciferase activity
O=c1cc(-c2ccc(O)c(O)c2)oc2cc(O)cc(O)c12 [luteolin, 3',4',5,7-tetrahydroxyflavone] | – | – | increased the amount of AGA mRNA products containing exon 2 | luciferase signal ([2]; 25 µM): Significant increase of luciferase signal
CC(=O)CCCCn1c(=O)c2c(ncn2C)n(C)c1=O [pentoxifylline, 3,7-dimethyl-1-(5-oxohexyl) xanthine] | Significant increase of luciferase signal | – | – | –
Cn1c(=O)c2[nH]cnc2n(C)c1=O [theophylline, 1,3-dimethylxanthine] | Significant increase of luciferase signal | – | – | –
